Legend:
HeLa-PLS3(F258V) cells = test: TUNEL apoptosis assay with flow cytometry; type: cell-based
Protocol: Apoptotic assays were performed with annexinV-PE (BD-PharMingen) per manufacturer's protocol. The TUNEL assay (terminal deoxynucleotidyltransferase-mediated dUTP-biotin nick end labeling) was performed according to the manufacturer's protocol (Roche, Switzerland).
A mutant of PLS3 was also constructed by mutating Phe258 to Val. This Phe258 is in a highly conserved calcium-binding motif, and mutation of the corresponding Phe at PLS1 completely abolishes the activity of PLS1.

[1] = test system: 293-vector, 293-PLS3 and 293-PLS3(F258V) cells; test: Growth curves (cell counts by trypan blue exclusion); type: cell-based; settings: three different Na3N concentrations
Protocol: FIG. 13. […] Cells were plated on day 0, and counted at days 1, 2 by trypan blue exclusion. (d) Growth curves in the presence of Na3N at three different concentrations.
Next, we incubated these cells in the presence of Na3N, an uncoupler of oxidative phosphorylation (Simbeni et al., 1990), and compared their growth.

SMILES: Cn1c2ccccc2c2c3c(c4c5ccccc5n(CCC#N)c4c21)CNC3=O [Go6976]
- left shift (decreased apoptosis) by PMA, with Go6976 added (HeLa-PLS3(F258V) cells; 200 nM PMA and 200 nM Go6976, 2 hours): inhibited

SMILES: [N-]=[N+]=[N-].[Na+] [Na3N]
- cell growth rate [1]: same slow growth rate

SMILES: CCCCCCCCCCCCCC(=O)O[C@@H]1[C@@H](C)[C@@]2(O)[C@@H](C=C(CO)C[C@]3(O)C(=O)C(C)=C[C@@H]23)[C@@H]2C(C)(C)[C@]12OC(C)=O [PMA]
- apoptosis (TUNEL) (HeLa-PLS3(F258V) cells; 200 nM PMA, 2 hours): decreased apoptosis
